From patent US20240051952A1, “HMOX1 INDUCERS” (Mitobridge Inc., priority 2019, published 2024)
Converted amounts (≈) assume the structure as drawn.

Experiment: Kinetic solubility
Format: physicochemical
Details: DPBS pH 7.4, 25° C., 16 h, 200 μM test compound
Protocol: 10 μL of 10 mM DMSO stock solution were aliquotted to 490 μL of DMSO solution and separately 490 μL of Dulbecco's phosphate buffer saline, DPBS, pH 7.4 solution in 1.2 mL 96-well plates in duplicate. Final concentration was 200 μM of the test compound. Samples were incubated at 25° C. with shaking at 200 rpm for 16 h. Samples were centrifuged at 3500 rpm for 20 min at 25° C., and supernatant was submitted for HPLC analysis.
Kinetic solubility was measured using the following equation: […]

Structure (SMILES) | Solubility
CCn1c(Nc2nc3ccc(OC(F)(F)F)cc3o2)nc2cc(C(=O)NCCOC)ccc21 [Example 85, 1-ethyl-N-(2-methoxyethyl)-2-((6-(trifluoromethoxy)benzo[d]oxazol-2-yl)amino)-1H-benzo[d]imidazole-5-carboxamide] | 3.3 µM (≈ 1.53 µg/mL)
COCCNC(=O)c1ccc2c(c1)nc(Nc1nc3ccc(OC(F)(F)F)cc3o1)n2CC1CCOC1 (centres unmarked) [Example 88, N-(2-methoxyethyl)-1-((tetrahydrofuran-3-yl)methyl)-2-((6-(trifluoromethoxy)benzo[d]oxazol-2-yl)amino)-1H-benzo[d]imidazole-5-carboxamide] | 3.9 µM (≈ 2.03 µg/mL)
